Test results taken from IntAct's records for PubMed 28698298.

B1: Eukaryotic translation initiation factor 4E-binding protein 1 (Homo sapiens), Q13541 (parent)
chain: MSGGSSCSQTPSRAIPATRRVVLGDGVQLPPGDYSTTPGGTLFSTTPGGTRIIYDRKFLMECRNSPVTKTPPRDLPTIPGVTSPSSDEPPMEASQSHLRNSPEDKRAGGEESQFEMDI

Variants of: B1
Conditions: with EIF4E2, O60573-1

Effect of a mutation on the interaction, disrupting interaction strength:
MSGGSSCSQTPSRAIPATRRVVLGDGVQLPPGDYSTTPGGTLFSTTPGGTRIIADRKFAMECRNSPVTKTPPRDAPTIPGATSPSSDEPPMEASQSHLRNSPEDKRAGGEESQFEMDI [Y54A;L59A;L75A;V81A]
MSGGSSCSQTPSRAIPATRRVVLGDGVQLPPGDYSTTPGGTLFSTTPGGTRIIADRKFAMECRNSPVTKTPPRDLPTIPGVTSPSSDEPPMEASQSHLRNSPEDKRAGGEESQFEMDI [Y54A;L59A]
MSGGSSCSQTPSRAIPATRRVVLGDGVQLPPGDYSTTPGGTLFSTTPGGTRIIYDRKFLMECRNSPVTKTPPRDAPTIPGATSPSSDEPPMEASQSHLRNSPEDKRAGGEESQFEMDI [L75A;V81A]
